Molecular target: purified recombinant HDAC5 (Homo sapiens, UniProt Q9UQL6)
Assay: HDAC fluorometric activity assay, purified HDAC5
Conditions: data not shown

Chains of the proteins cited; added tags and fusions are not shown. Lines headed by an entry give the natural chain unless they say otherwise; changes in a name come on top.
UniProt Q9UQL6: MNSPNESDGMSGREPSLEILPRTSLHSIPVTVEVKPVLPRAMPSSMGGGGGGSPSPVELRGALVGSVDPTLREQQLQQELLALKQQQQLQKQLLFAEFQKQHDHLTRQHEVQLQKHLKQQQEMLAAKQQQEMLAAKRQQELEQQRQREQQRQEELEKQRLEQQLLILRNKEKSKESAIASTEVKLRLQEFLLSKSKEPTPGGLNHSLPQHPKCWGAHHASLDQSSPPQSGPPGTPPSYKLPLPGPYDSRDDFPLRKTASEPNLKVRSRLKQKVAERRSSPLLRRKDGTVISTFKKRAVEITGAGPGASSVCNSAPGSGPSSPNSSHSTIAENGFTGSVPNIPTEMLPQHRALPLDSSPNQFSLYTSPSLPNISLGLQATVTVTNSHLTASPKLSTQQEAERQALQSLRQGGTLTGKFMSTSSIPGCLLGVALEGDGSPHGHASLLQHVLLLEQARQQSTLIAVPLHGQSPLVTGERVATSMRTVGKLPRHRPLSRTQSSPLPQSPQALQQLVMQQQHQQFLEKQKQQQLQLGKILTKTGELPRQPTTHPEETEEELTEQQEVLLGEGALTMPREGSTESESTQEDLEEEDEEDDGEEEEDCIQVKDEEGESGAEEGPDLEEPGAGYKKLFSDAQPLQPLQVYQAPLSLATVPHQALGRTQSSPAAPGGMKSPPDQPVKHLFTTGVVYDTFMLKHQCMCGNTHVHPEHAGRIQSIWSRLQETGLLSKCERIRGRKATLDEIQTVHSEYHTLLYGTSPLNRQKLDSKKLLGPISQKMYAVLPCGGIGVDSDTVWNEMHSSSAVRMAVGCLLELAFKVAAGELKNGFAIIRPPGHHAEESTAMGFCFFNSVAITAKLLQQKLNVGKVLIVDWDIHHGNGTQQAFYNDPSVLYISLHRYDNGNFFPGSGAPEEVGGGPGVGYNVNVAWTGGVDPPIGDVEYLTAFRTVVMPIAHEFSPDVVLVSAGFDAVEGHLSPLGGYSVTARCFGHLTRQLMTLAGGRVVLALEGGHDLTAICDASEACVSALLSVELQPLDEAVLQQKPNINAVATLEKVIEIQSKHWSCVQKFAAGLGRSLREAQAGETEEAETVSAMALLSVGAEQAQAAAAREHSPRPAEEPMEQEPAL

## trichostatin A
  inhibition of HDAC5 activity: similarly sensitive

Source: paper PMC3251870 (British Journal of Cancer, 2011)
